# Test system: thermostable variant of hCA II ('5X' mutant, M5X)
# Assay: CO2 absorption rate in stirred cell, alkanolamine solution with 5X CA (M5X) enzyme
substance,measurement,setting,value
dimethylethanolamine,k3*,least squares method,0.058 m^6 · mol^−1 · kg^−1 · s^−1
same,k4*,least squares method,0.130 m^3 · kg^−1
same,k3*,linear regression method,0.067 m^6 · mol^−1 · g^−1 · s^−1
same,k4*,linear regression method,0.350 m^3 · g^−1
